The nature of series [1]: Foaming capability of individual surfactant components admixed with water and agitated. The format is physicochemical. As to the method:
The foaming ability was determined by a numerical score, 1 representing an excellent foamer and 5 representing a poor foamer

Series [2] concerns EpiOral ORL-200 model. In words: EpiOral in Vitro Irritation Test Method (EpiOral ORL-200 model). To be noted: time at which 50% of cells are viable, test terminated at 240 minutes.

Regarding sodium cocoyl glutamate, the “foaming ability as compared to sodium lauryl sulfate” value in series [1] (individual surfactant components, in words) is “significantly poorer”. Moreover, the Foaming ability in series [1] (numerical score, 1 representing an excellent foamer and 5 a poor foamer) is 5. The “ET-50 Time” value in series [2] (surfactant component 1 wt % in water) and in series [2] (surfactant component 2 wt % in water) was more than 240 min throughout.

The record behind these values is patent US8597618B1, “Dentifrice composition” (Toms's of Maine, Inc., priority 2012, dated 2013).
